# Laboratory results taken from patent publication US20230020663A1, “SULFONAMIDE INHIBITORS AS CTPS1 INHIBITORS” (Step Pharma S.A.S., priority 2019, published 2023).
# Target: human CTPS1 (Homo sapiens, UniProt P17812)
# Assay: Human CTPS1 enzyme inhibition (ADP-Glo Max assay)
# Experimental: The enzyme inhibitory activities of compounds invented against the target of interest were determined using the ADP-Glo™ Max assay (Promega, UK). Assays for human CTPS1 were performed in 1× assay buffer containing 50 mM Tris, 10 mM MgCl2, 0.01% Tween-20, pH to 8.0 accordingly. Finally, immediately before use, L-cysteine was added to the 1× assay buffer to a final concentration of 2 mM. All reagents are from Sigma-Aldrich unless specified otherwise. Human full length active C-terminal FLAG-Hiss-tag CTPS1 (UniProtKB—P17812, CTPS[1-591]-[…]) was obtained from Proteros biostructures GmbH.
# 3× human CTPS1 protein was prepared in 1× assay buffer to the final working protein concentration required for the reaction. […] The enzymatic reaction was then initiated by addition of a 2 uL per well volume of a pre-mixed substrate mix (UltraPure ATP from ADP-Glo™ Max kit (0.31 mM), GTP (0.034 mM), UTP (0.48 mM) and L-glutamine (0.186 mM)) and the mixture was incubated for an appropriate amount of time within the determined linear phase of the reaction at 25° C. under sealed plate conditions with constant agitation at 500 revolutions per minute (rpm). ADP-Glo™ Max reagent was added for 60 minutes (6 μL per well) and subsequently ADP-Glo™ Max development reagent was added for 60 minutes (12 uL per well) prior to signal detection in a microplate reader (EnVision® Multilabel Reader, Perkin Elmer). […]
"IC50 (read-out: CTPS1 (Human CTPS1 Enzyme Inhibition data grouped by potency range), Table 24) [nM]",Compound,"IC50 (read-out: CTPS1 (Human CTPS1 Enzyme Inhibition data grouped by potency range), Table 23) [nM]"
100 to 1000,CCOc1cnc(-c2ccc(NC(CC)c3ccnc(NS(=O)(=O)C4CC4)n3)cc2)cn1 (centres unmarked),
,CC(C)c1cncc(-c2ccc(NC(=O)C(C)(C)c3ccnc(NS(=O)(=O)C4CC4)n3)nc2)n1,100 to 1000

# Like-named read-outs stand apart in the source and are kept apart here.
